Experimental data: US20100248255A1, “NOVEL PEPTIDES” (KYOWA HAKKO KOGYO CO., LTD, priority 2005, published 2010)

Tested on: antiserum (rabbit, Peptide 7-KLH conjugate as antigen)
Test: Binding specificity of antiserum by competitive RIA with [125I]-labeled Peptide 1
Details: non-VGF peptides at 1, 10, and 100 pmol
Procedure: As controls, reactions that use RIA buffer instead of the antiserum to measure non-specific binding, and reactions […] that use RIA buffer instead of VGF-derived peptide solutions to measure the maximum binding level were carried out. Reactions for non-specific binding were performed in quadruplicates, and the other reactions were performed in duplicates, and for each of the reactants, the immune complex was precipitated as in the above-mentioned antibody titer measurements, and its radioactivity (cpm) was measured. The average radioactivity of non-specific binding reaction is defined as non-specific binding level N, the radioactivity value for each VGF-derived peptide addition reaction is defined as Y, and the radioactivity value of maximum binding reaction is defined as Z. The percentage ratio (B/B0) of antiserum specific binding level (B) with peptide addition to the maximum binding level (B0), was determined using the following formula.
B/B0 (%)={(Y−N)/(Z−N)}×100
Accordingly, the amount of peptide that achieves 50% B/B0, more specifically, the amount of peptide that yields 50% inhibition of the maximum binding level, was used as an indicator of the peptide binding activity to the antiserum. […]

inhibition of antiserum binding to [125I]-labeled Peptide 1: none of the peptides showed inhibition
Substance: calcitonin gene-related peptide
